PDI turbidity – inhibitors of human protein disulfide isomerase. PDI insulin aggregation turbidity, A650, 90 min. inhibition, % at 10 µM. AID 588391. 0.052% of 350,000 active;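 active = mean inhibition across replicates of 30% or more, whatever share of single replicates reach that level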
Rev-erbA mod – Rev-erb alpha (human) modulation; AID 1259318; P20393; 0.79% of 370,000 active; activity, % at 10 µM; Rev-erbα–FITC-DNA binding, fluorescence polarization, 90 min;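 active = activity above about 14%, limit read from the data; passing the limit was not always enough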;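 note: 0% = DMSO wells with 35 nM protein and 100% = DMSO wells with 750 nM protein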
SMARCA2 activ – activators of SMARCA2 function. MG213 cells, MMTV-luciferase reporter, dexamethasone, overnight. activation, % at 9.1 µM. 1% of 370,000 active; in the data active = activation above about 7.8%;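 note: 0% = vehicle wells and 100% = reference activator wells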
GSIS activator – GLuc luminescence reporter in INS-1E cells, primary screen for activators of glucose-dependent secretion of insulin. INS-1E GLuc reporter insulin secretion, 2-3 h. AID 743287. 0.61% of 370,000 active. activation, % at 16.6 µM;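 active = lowest replicate activation of at least 40%, so every replicate reaches that level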;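 note: 0% = median of neutral control wells and 100% = median of IBMX positive control wells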
UUG fidelity – modulators of yeast start codon fidelity, primary screen, whole organism, S. cerevisiae, single point, plate reader; S. cerevisiae UUG-firefly luciferase reporter, luminescence/redox ratio; activity score, % at 18.7 µM; actives 0.13% (n = 350,000); AID 602363, 2012;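 active = replicate mean at a twofold rise or more, about +100% in these data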;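 also: firefly luciferase made from a UUG start codon reports start codon fidelity; reporter light over untreated wells divided by growth signal over untreated wells; some hits fall short of that in this replicate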
ERp5 inh – inhibitors of human ERp5 | Q15084 | ERp5 insulin aggregation, absorbance 650 nm, 90 min | inhibition, % at 9.99 µM | 0.05% of 350,000 active | AID 651711;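 active = mean replicate inhibition above about 25%, with every replicate also reaching it, limit read from the data, passing the limit was not always enough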
Rev-erbA confirm – Rev-erb alpha (human) modulation, hit confirmation | AID 1259319 | activation, % at 25 µM | Rev-erb alpha FITC-DNA binding, fluorescence polarization, 90 min | 61% of 3,000 active | shares compounds with Rev-erbA mod;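 active = activation at or above a set limit, or at least 3 SD above the negative control mean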;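 note: 0% = 35 nM protein with DMSO and 100% = 750 nM protein high control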
RORg DNA counter – RORgamma DNA-binding activity, dose-response counter-screen. shares compounds with Rev-erbA mod. purified RORgamma protein-FITC-DNA binding, fluorescence polarization. 8% of 910 active. IC50, µM;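 active = Compounds whose fitted half-maximal concentration for disrupting protein-DNA binding is below 10 micromolar; the record names Rev-erb in its text, so the target is in doubt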
An asterisk follows results filed as active; i = inactive; nt = not tested or not shown. An excerpt weighted towards active compounds, which were near 2.1% of everything screened.

SMILES	PDI turbidity	Rev-erbA mod	SMARCA2 activ	GSIS activator	UUG fidelity	ERp5 inh	Rev-erbA confirm	others
CCS(=O)(=O)Nc1ccc2c(c1)C(=O)N(C)C[C@H](OC)[C@@H](C)CN(C(=O)C1CC1)[C@@H](C)CO2	nt	nt	nt	8	-7	1	nt
C[C@@H]1CN([C@@H](C)CO)C(=O)c2cc(C#Cc3cccnc3)cnc2O[C@@H]1CN(C)C(=O)CC1CC1	nt	nt	nt	1	-6	-1	nt
CCCn1c(=S)[nH]c2cc(C(=O)N3CCc4ccccc4C3)ccc2c1=O	-5	1	-5	-12	nt	nt	nt
CCOc1cc2[nH]c(=S)n(CCC(=O)N3CCc4ccccc4C3)c(=O)c2cc1OCC	-3	59*	2	nt	-15	11	62*	RORg DNA counter=>40
C[C@H]1CN([C@@H](C)CO)C(=O)c2cc(NS(=O)(=O)c3ccccc3)ccc2O[C@@H]1CN(C)Cc1ccc2c(c1)OCO2	nt	nt	nt	18	-3	-3	nt
O=C(C[C@@H]1C=C[C@H](NS(=O)(=O)c2ccc(F)cc2)[C@H](CO)O1)N1CCN(c2ccccc2)CC1	nt	nt	nt	-5	-5	-7	nt
CC(C)Cc1nc2sc3c(SCC(N)=O)ncnc3c2c2c1CCC2	-2	369*	-5	7	-8	-5	568*	RORg DNA counter=i
C[C@H]1CN([C@@H](C)CO)C(=O)Cc2cc(NC(=O)CCN3CCOCC3)ccc2O[C@H]1CN(C)Cc1ccc(C(F)(F)F)cc1	nt	nt	nt	-1	4	-4	nt
CCOC(=O)/C(C#N)=C\C=C1C=CN(C)C=C1	-2	31*	7	nt	11	nt	28*
CCOC(=O)/C(C#N)=C\c1ccc(CC)s1	-5	6	1	nt	-18	nt	nt
CCNC(=O)C[C@@H]1CC[C@H]2[C@H](COc3ccc(NC(=O)c4ccc(C(F)(F)F)cc4)cc3C(=O)N2C)O1	nt	nt	nt	-11	5	9	nt
O=C(c1ccco1)N1C(=O)c2cccc3cccc1c23	-3	-3	1	nt	-13	nt	nt
O=C(c1ccccc1F)N1C(=O)c2cccc3cccc1c23	1	25*	0	8	nt	4	10
O=C(c1cccs1)N1C(=O)c2cccc3cccc1c23	-3	51*	-2	19	nt	9	42*	RORg DNA counter=>40
O=C(O)c1ccccc1N1C(=O)c2cccc3cccc(c23)C1=O	-1	6	0	-2	8	-3	nt

Quoted at random: 4 records from the list
SMILES	PDI turbidity	Rev-erbA mod	SMARCA2 activ	GSIS activator	UUG fidelity	ERp5 inh	Rev-erbA confirm	others
CCOC(=O)/C(C#N)=C\c1ccc(CC)s1	-5	6	1	nt	-18	nt	nt
C[C@H]1CN([C@@H](C)CO)C(=O)Cc2cc(NC(=O)CCN3CCOCC3)ccc2O[C@H]1CN(C)Cc1ccc(C(F)(F)F)cc1	nt	nt	nt	-1	4	-4	nt
CC(C)Cc1nc2sc3c(SCC(N)=O)ncnc3c2c2c1CCC2	-2	369*	-5	7	-8	-5	568*	RORg DNA counter=i
O=C(O)c1ccccc1N1C(=O)c2cccc3cccc(c23)C1=O	-1	6	0	-2	8	-3	nt

(list continues)
SMILES	PDI turbidity	Rev-erbA mod	SMARCA2 activ	GSIS activator	UUG fidelity	ERp5 inh	Rev-erbA confirm	others
C[C@H](CO)N1C[C@H](C)[C@H](CN(C)C(=O)Nc2ccc(C(F)(F)F)cc2)Oc2ccc(NC(=O)C3CCCCC3)cc2C1=O	nt	nt	nt	-12	12	7	nt
O=C1C(Cl)=C(NC2CCCCC2)C(=O)N1c1ccc(Cl)cc1	-14	40*	4	0	-3	nt	13
O=C(Nc1nc(-c2cccs2)c(-c2ccccc2)s1)c1ccco1	-14	1	-1	nt	nt	nt	nt
CC1CC1C(=O)Nc1nc(-c2cccs2)c(-c2cccs2)s1 (stereo not drawn)	5	53*	0	16	nt	nt	75*	RORg DNA counter=i
Nc1nc(-c2cccs2)c(-c2cccs2)s1	7	282*	0	26	-13	3	244*	RORg DNA counter=i
CC=Cc1ccc2n(c1=O)C[C@H]1[C@H](CO)[C@@H](C(=O)NCCC)[C@@H]2N1C(=O)C1CC1 (mixture of isomers)	nt	nt	nt	0	20	2	nt
Cc1n[nH]c(=S)n(NC(=O)CC(=O)Nn2c(=S)[nH]nc(C)c2=O)c1=O	-1	16*	-3	2	nt	0	5
COC(=O)c1cc2cc(Cl)ccc2nc1SC	-12	98*	-5	-6	nt	1	53*	RORg DNA counter=i
CO[C@@H](CN(C)S(=O)(=O)c1ccccc1)[C@@H](C)CN(C(=O)Nc1ccccc1F)[C@@H](C)CO	nt	nt	nt	17	nt	-2	nt
CC(=O)c1ccc(N2CCN(C(=S)Nc3cccc(F)c3)CC2)cc1	0	29*	0	nt	nt	nt	18*
COc1ccc(-c2c(C#N)c(SCC(=O)Nc3ccccc3)nc3c2CCCC3)cc1	-2	45*	-4	nt	0	nt	29*
CCc1ccccc1NC(=O)CSc1nc2c(c(-c3ccco3)c1C#N)CCCC2	1	29*	-5	37	-14	nt	20*

Assay outcomes: PubChem BioAssay, several laboratories
